Positions count from the first letter of the chain named. Each block holds one binder with its values, some of them ahead of it.
Experiments:
[1] = target: T1, recombinant cynomolgus monkey TREM-1 (cynomolgus monkey, UniProt A0A2K5VHG8 21-204); assay: SPR, Fab immobilised, cynomolgus TREM-1 injected; average
T1 construct: Soluble recombinant protein injected as SPR analyte; construct not described; also called cTREM-1; cynomolgus TREM-1
T1 sequence: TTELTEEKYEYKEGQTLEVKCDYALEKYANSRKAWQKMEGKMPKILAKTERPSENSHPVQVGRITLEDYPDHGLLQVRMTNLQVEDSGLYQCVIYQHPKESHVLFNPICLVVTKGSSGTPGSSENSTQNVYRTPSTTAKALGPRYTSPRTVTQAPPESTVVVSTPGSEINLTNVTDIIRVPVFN
Description: (§1) Surface plasmon resonance (SPR): in order to evaluate the interaction kinetics for TREM-1 antibodies or Fabs to hTREM-1 (human TREM-1) and cTREM-1 (cynomolgus monkey TREM-1), surface plasmon resonance (SPR) assays were carried out (Biacore™ T200, GE Healthcare Biosciences). The anti-human Fc antibodies (Cytiva) were immobilized on CM5 sensor chip in order to evaluate IgG1 affinities and Fabs were directly immobilized on the chip. Immobilization experiments were performed at 25° C. using HBS-EP+1× running buffer (10 mM HEPES, 150 mM NaCl, 3 mM EDTA, 0.05% surfactant P20, pH 7.4). The anti-human Fc antibodies or Fabs were diluted in 10 mM sodium acetate at acidic pH before the immobilization procedure using amine coupling on the dextran matrix of the sensor chips. […] Following these injections, ethanolamine was injected to deactivate the surface. The immobilization wizard was used to obtain several thousand of immobilized RU (resonance units). The immobilization level was chosen in order to have a proper covering of the sensor chip surface. […] Binding of hTREM-1 or cTREM-1 proteins was conducted by injecting analyte over all flow cells. […] The concentrations were evaluated using the Single Cycle Kinetics method. This approach consists of a sequential injection of increasing concentration of the analyte, with a single regeneration step using a magnesium chloride buffer (Cytiva) at the end of the cycle. Binding affinity of TREM-1 antibodies or Fabs with hTREM-1 or cTREM-1 was quantified by determination of the equilibrium dissociation constant (KD) determined by measurement of the kinetics of complex formation and dissociation.

[2] = target: T1, recombinant cynomolgus monkey TREM-1; assay: SPR, Fab immobilised, cynomolgus TREM-1 injected; replicate 1
Description: as §1

[3] = target: T1, recombinant cynomolgus monkey TREM-1; assay: SPR, Fab immobilised, cynomolgus TREM-1 injected; replicate 2
Description: as §1

[4] = target: T1, recombinant cynomolgus monkey TREM-1; assay: SPR, Fab immobilised, cynomolgus TREM-1 injected; replicate 1; replicate 1
Description: Surface plasmon resonance (SPR): in order to evaluate the interaction kinetics for TREM-1 antibodies or Fabs to hTREM-1 (human TREM-1) and cTREM-1 (cynomolgus monkey TREM-1), surface plasmon resonance (SPR) assays were carried out (Biacore™ T200, GE Healthcare Biosciences). The anti-human Fc antibodies (Cytiva) were immobilized on CM5 sensor chip in order to evaluate IgG1 affinities and Fabs were directly immobilized on the chip. Immobilization experiments were performed at 25° C. using HBS-EP+1× running buffer (10 mM HEPES, 150 mM NaCl, 3 mM EDTA, 0.05% surfactant P20, pH 7.4). The anti-human Fc antibodies or Fabs were diluted in 10 mM sodium acetate at acidic pH before the immobilization procedure using amine coupling on the dextran matrix of the sensor chips. […] Following these injections, ethanolamine was injected to deactivate the surface. The immobilization wizard was used to obtain several thousand of immobilized RU (resonance units). The immobilization level was chosen in order to have a proper covering of the sensor chip surface. […] The concentrations were evaluated using the Single Cycle Kinetics method. […] Binding affinity of TREM-1 antibodies or Fabs with hTREM-1 or cTREM-1 was quantified by determination of the equilibrium dissociation constant (KD) determined by measurement of the kinetics of complex formation and dissociation.

[5] = target: T2, human TREM-1 expressed on cells (U937-vitD3 cells, THP-1-vitD3 cells, human primary neutrophils, whole blood … (human, UniProt Q9NP99 21-234)); assay: cell-based or functional assay
[6] = target: T3, recombinant human TREM-1 (human, UniProt Q9NP99 21-205); assay: SPR, Fab immobilised, human TREM-1 injected; average
T3 construct: Soluble recombinant protein injected as SPR analyte; also called hTREM-1
Description: as §1

[7] = target: T3, recombinant human TREM-1; assay: SPR, Fab immobilised, human TREM-1 injected; replicate 1
Description: as §1

[8] = target: T3, recombinant human TREM-1; assay: SPR, Fab immobilised, human TREM-1 injected; replicate 2
Description: as §1

[9] = target: T2, human TREM-1 expressed on cells …; assay: flow cytometry on freshly isolated human neutrophils; freshly isolated human neutrophils
[10] = target: T2, human TREM-1 expressed on cells …; assay: flow cytometry on freshly isolated human primary neutrophils, MFI against Fab concentration

- koff [1]: 0.00177 s⁻¹
- kon [1]: 28900 M⁻¹ s⁻¹
- koff [2]: 0.00207 s⁻¹
- koff [3]: 0.00147 s⁻¹
- kon [3]: 22100 M⁻¹ s⁻¹
- kon [4]: 35700 M⁻¹ s⁻¹
B1: anti-hTREM-1 Fab fragment INO-10F (Fab, V domains shown)
VH: AVQLQQSVAALVRPGASVKLSCTASGFNIKNTYIHWVKQRPEQGLEWIGRIDPANGNTKYAPKFQGKATITADTSSDTAYLQLSSLTSDDTAIYYCTGHYGSTMDYWGQGTSVTVSS
VL: not shown
notes: Recombinant chimeric Fab (murine variable regions) made in CHO cells and purified on HisTrap Excel; also called INO-10 Fab

- IL-6 release by U937-vitD3 cells stimulated with the PGLYRP-1:PGN complex; IC50 [5]: ~0.5 µg/mL
- Kd [6]: 6.79 nM
- koff [6]: 0.00117 s⁻¹
- kon [6]: 174000 M⁻¹ s⁻¹
- Kd [7]: 5.76 nM
- koff [7]: 0.00109 s⁻¹
- kon [7]: 189000 M⁻¹ s⁻¹
- Kd [8]: 7.81 nM
- koff [8]: 0.00124 s⁻¹
- kon [8]: 158000 M⁻¹ s⁻¹
B2: humanized anti-TREM-1 Fab fragment INO-10F-1 (Fab, V domains shown)
VH: EVQLVESGGALVKPGGSLRLSCAASGFNIKNTYIHWVRQAPGKGLEWIGRIDPANGNTKYAPKVQGRFTISADTSKNTAYLQMNSLKTEDTAVYYCTGHYGSTMDYWGQGTLVTVSS
VL: EIVLTQSPATLSLSPGERATLSCRASESVDNYGISFMNWFQQKPGQAPRLLIYAASNQGSGIPARFSGSGSGTDFTLTISSLEPEDFAVYFCQQSKEVPWTFGQGTKVEIK
notes: Fab; CDRs identical to INO-10F except for one amino acid in VH-CDR2

- Kd [6]: 1.02 nM
- koff [6]: 0.000217 s⁻¹
- kon [6]: 213000 M⁻¹ s⁻¹
- Kd [7]: 0.961 nM
- koff [7]: 0.000209 s⁻¹
- kon [7]: 217000 M⁻¹ s⁻¹
- Kd [8]: 1.07 nM
- koff [8]: 0.000224 s⁻¹
- kon [8]: 209000 M⁻¹ s⁻¹
- koff [1]: 0.000771 s⁻¹
- kon [1]: 31400 M⁻¹ s⁻¹
- koff [2]: 0.000768 s⁻¹
- kon [2]: 31000 M⁻¹ s⁻¹
- koff [3]: 0.000774 s⁻¹
- kon [3]: 31700 M⁻¹ s⁻¹
B3: humanized anti-TREM-1 Fab fragment INO-10F-4 (Fab, V domains shown)
VH: B2 VH with K30G, I48V, N55G, N57R, Q65K, T74D, Y100R, S102G
VL: EIVLTQSPATLSLSPGERATLSCRASQSVSNYGISFLNWYQQKPGQAPRLLIYAAEYRGRGIPARFSGSGSGTDFTLTISSLEPEDFAVYYCQQSSNVPYTFGQGTKVEIK
notes: Fab

- Kd [6]: 1.52 nM
- koff [6]: 0.000309 s⁻¹
- kon [6]: 206000 M⁻¹ s⁻¹
- Kd [7]: 1.29 nM
- koff [7]: 0.000297 s⁻¹
- kon [7]: 229000 M⁻¹ s⁻¹
- Kd [8]: 1.75 nM
- koff [8]: 0.000321 s⁻¹
- kon [8]: 183000 M⁻¹ s⁻¹
- koff [1]: 0.000885 s⁻¹
- kon [1]: 31400 M⁻¹ s⁻¹
- koff [3]: 0.0009 s⁻¹
- kon [3]: 31600 M⁻¹ s⁻¹
B4: humanized anti-TREM-1 Fab fragment INO-10F-2 (Fab, V domains shown)
VH: B2 VH with K30G, N55G, N57R, A61S, D73P, Y100R, S102G
VL: B3 VL with E56S, R58Q, G59K, V98F, Y100W
notes: Fab

- IL-6 release by U937-vitD3 cells stimulated with the PGLYRP-1:PGN complex; IC50 [5]: ~0.05 µg/mL
- Kd [6]: 0.301 nM
- koff [6]: 6.07e-05 s⁻¹
- kon [6]: 202000 M⁻¹ s⁻¹
- Kd [7]: 0.261 nM
- koff [7]: 5.31e-05 s⁻¹
- kon [7]: 203000 M⁻¹ s⁻¹
- Kd [8]: 0.34 nM
- koff [8]: 6.82e-05 s⁻¹
- kon [8]: 200000 M⁻¹ s⁻¹
- koff [1]: 0.000243 s⁻¹
- kon [1]: 31800 M⁻¹ s⁻¹
- koff [2]: 0.00024 s⁻¹
- kon [2]: 31600 M⁻¹ s⁻¹
- koff [3]: 0.000245 s⁻¹
- kon [3]: 31900 M⁻¹ s⁻¹
- EC50 [9]: ~0.03 µg/mL
- EC50 [10]: 0.0281 µg/mL
B5: humanized anti-TREM-1 Fab fragment INO-10F-3 (Fab, V domains shown)
VH: B2 VH with K30D, N55G, N57R, A61D, Q65K, S102G
VL: B3 VL with Q27E, S30D, S96R, N97H
notes: Fab

- Kd [6]: 3.96 nM
- koff [6]: 0.000474 s⁻¹
- kon [6]: 120000 M⁻¹ s⁻¹
- Kd [7]: 3.89 nM
- koff [7]: 0.000481 s⁻¹
- kon [7]: 124000 M⁻¹ s⁻¹
- Kd [8]: 4.03 nM
- koff [8]: 0.000467 s⁻¹
- kon [8]: 116000 M⁻¹ s⁻¹
- koff [1]: 0.00127 s⁻¹
- kon [1]: 22500 M⁻¹ s⁻¹
- koff [2]: 0.00121 s⁻¹
- kon [2]: 20100 M⁻¹ s⁻¹
- koff [3]: 0.00133 s⁻¹
- kon [3]: 24900 M⁻¹ s⁻¹
B6: humanized anti-TREM-1 Fab fragment INO-10F-6 (Fab, V domains shown)
VH: B2 VH with K30G, I48V, N55G, N57R, Q65K, T74D, A79L, Y100R, S102G
VL: B3 VL with G59A
notes: Fab

- Kd [6]: 0.74 nM
- koff [6]: 0.00015 s⁻¹
- kon [6]: 202000 M⁻¹ s⁻¹
- Kd [7]: 0.884 nM
- koff [7]: 0.00018 s⁻¹
- kon [7]: 204000 M⁻¹ s⁻¹
- Kd [8]: 0.595 nM
- koff [8]: 0.000119 s⁻¹
- kon [8]: 200000 M⁻¹ s⁻¹
- Kd [1]: 15.8 nM
- koff [1]: 0.000542 s⁻¹
- kon [1]: 34500 M⁻¹ s⁻¹
- Kd [2]: 15.8 nM
- koff [2]: 0.000539 s⁻¹
- kon [2]: 34200 M⁻¹ s⁻¹
- Kd [3]: 15.7 nM
- koff [3]: 0.000545 s⁻¹
- kon [3]: 34700 M⁻¹ s⁻¹
B7: humanized anti-TREM-1 Fab fragment INO-10F-5 (Fab, V domains shown)
VH: B2 VH with K30G, N55G, N57R, S102G
VL: B3 VL with R58Q, V108L
notes: Fab; also called E5

— patent US20240254225A1 (INOTREM, published 2024)
